Key:
[1] = target: T1, biotinylated XPC/RAD23B/centrin-2 (WT) heterotrimer (human, UniProt Q01831; P54727; P41208, biotin on the AviTag (in vitro, BirA)); experiment: pull-down; biotinylated XPC/RAD23B with or without pre-bound centrin-2 on streptavidin beads; TFIIH (70 ng) and/or FLAG-XPA (130 ng) in buffer B (40 mM Hepes-NaOH pH 7.9, 2 mM ATP, 3 mM MgCl2, 0.15 M NaCl), on ice 1 h; immunoblot; settings: both partners purified
T1 construct: XPC protein, human; RAD23B, one of the two mammalian homologs of S. cerevisiae RAD23; centrin-2, human, wild type; also called XPC/RAD23B with centrin-2; not shown: AviTag, internal (between the FLAG-tag and XPC), kept; GST, N-terminal, cleaved; copies: + +

[2] = target: T2, biotinylated XPC/RAD23B/centrin-2 (C domain) complex (human, UniProt Q01831 1-940; P54727 1-409; P41208 94-172, biotin on the AviTag (in vitro, BirA)); experiment: as above; settings: both partners purified
T2 construct: XPC protein, human; RAD23B, one of the two mammalian homologs of S. cerevisiae RAD23; centrin-2, human, carboxyl-terminal (C) domain, residues 94-172; also called XPC/RAD23B with centrin-2 (C); not shown: AviTag, internal (between the FLAG-tag and XPC), kept; GST, N-terminal, cleaved; copies: + +
T2 sequence (looked up) 1: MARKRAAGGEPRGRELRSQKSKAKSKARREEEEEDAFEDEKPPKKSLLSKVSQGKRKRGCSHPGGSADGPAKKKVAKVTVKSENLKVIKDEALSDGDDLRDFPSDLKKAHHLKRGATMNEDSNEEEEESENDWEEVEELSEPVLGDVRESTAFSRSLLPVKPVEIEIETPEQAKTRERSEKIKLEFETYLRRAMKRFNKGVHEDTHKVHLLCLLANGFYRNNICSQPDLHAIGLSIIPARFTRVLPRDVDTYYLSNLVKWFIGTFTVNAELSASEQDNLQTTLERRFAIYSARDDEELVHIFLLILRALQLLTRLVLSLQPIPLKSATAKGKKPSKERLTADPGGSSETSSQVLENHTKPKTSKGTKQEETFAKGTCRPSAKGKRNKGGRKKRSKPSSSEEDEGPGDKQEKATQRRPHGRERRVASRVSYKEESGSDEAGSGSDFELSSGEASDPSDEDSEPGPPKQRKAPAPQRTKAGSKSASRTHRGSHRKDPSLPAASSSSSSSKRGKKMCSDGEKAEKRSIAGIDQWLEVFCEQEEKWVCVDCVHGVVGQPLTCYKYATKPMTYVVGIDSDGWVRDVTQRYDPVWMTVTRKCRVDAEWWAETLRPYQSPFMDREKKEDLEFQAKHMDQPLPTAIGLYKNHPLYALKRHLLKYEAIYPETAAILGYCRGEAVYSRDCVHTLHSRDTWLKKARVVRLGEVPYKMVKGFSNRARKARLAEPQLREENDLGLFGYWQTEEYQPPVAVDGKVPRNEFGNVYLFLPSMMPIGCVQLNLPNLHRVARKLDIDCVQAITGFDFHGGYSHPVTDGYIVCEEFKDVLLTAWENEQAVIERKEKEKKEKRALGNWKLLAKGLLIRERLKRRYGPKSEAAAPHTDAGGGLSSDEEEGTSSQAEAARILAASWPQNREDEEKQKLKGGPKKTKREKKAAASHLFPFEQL
T2 sequence (looked up) 2: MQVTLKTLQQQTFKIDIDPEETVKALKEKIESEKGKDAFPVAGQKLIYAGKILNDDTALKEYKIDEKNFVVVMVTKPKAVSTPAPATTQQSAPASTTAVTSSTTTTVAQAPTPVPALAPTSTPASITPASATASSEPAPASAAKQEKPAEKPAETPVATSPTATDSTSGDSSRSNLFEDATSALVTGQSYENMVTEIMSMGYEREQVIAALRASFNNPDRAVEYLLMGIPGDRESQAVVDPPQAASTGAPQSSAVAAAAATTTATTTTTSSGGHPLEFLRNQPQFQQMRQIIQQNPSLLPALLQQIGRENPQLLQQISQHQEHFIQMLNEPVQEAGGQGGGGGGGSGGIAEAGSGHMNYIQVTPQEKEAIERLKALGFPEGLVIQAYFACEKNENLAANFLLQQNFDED
T2 sequence (looked up) 3: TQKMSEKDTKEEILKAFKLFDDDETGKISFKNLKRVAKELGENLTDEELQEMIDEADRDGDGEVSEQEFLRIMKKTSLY

binding result [1]: binds
binding result [2]: binds
B1: FLAG-XPA (natural protein, human, UniProt P23025 1-273, looked up)
chain: MAAADGALPEAAALEQPAELPASVRASIERKRQRALMLRQARLAARPYSATAAAATGGMANVKAAPKIIDTGGGFILEEEEEEEQKIGKVVHQPGPVMEFDYVICEECGKEFMDSYLMNHFDLPTCDNCRDADDKHKLITKTEAKQEYLLKDCDLEKREPPLKFIVKKNPHHSQWGDMKLYLKLQIVKRSLEVWGSQEALEEAKEVRQENREKMKQKKFDKKVKELRRAVRSSVWKRETIVHQHEYGPEENLEDDMYRKTCTMCGHELTYEKM
notes: XPA protein, human; also called purified recombinant XPA

Source: paper PMC3737541, “Structure-function analysis of the EF-hand protein centrin-2 for its intracellular localization and nucleotide excision repair” (Nucleic Acids Research, 2013)
